# Test results as given in PubChem BioAssay AID1645854 (Buhrlage Lab, Dana-Farber Cancer Institute and Novartis …, 2021).
# Chains of the proteins cited; added tags and fusions are not shown.
# UniProt Q93009, whole entry: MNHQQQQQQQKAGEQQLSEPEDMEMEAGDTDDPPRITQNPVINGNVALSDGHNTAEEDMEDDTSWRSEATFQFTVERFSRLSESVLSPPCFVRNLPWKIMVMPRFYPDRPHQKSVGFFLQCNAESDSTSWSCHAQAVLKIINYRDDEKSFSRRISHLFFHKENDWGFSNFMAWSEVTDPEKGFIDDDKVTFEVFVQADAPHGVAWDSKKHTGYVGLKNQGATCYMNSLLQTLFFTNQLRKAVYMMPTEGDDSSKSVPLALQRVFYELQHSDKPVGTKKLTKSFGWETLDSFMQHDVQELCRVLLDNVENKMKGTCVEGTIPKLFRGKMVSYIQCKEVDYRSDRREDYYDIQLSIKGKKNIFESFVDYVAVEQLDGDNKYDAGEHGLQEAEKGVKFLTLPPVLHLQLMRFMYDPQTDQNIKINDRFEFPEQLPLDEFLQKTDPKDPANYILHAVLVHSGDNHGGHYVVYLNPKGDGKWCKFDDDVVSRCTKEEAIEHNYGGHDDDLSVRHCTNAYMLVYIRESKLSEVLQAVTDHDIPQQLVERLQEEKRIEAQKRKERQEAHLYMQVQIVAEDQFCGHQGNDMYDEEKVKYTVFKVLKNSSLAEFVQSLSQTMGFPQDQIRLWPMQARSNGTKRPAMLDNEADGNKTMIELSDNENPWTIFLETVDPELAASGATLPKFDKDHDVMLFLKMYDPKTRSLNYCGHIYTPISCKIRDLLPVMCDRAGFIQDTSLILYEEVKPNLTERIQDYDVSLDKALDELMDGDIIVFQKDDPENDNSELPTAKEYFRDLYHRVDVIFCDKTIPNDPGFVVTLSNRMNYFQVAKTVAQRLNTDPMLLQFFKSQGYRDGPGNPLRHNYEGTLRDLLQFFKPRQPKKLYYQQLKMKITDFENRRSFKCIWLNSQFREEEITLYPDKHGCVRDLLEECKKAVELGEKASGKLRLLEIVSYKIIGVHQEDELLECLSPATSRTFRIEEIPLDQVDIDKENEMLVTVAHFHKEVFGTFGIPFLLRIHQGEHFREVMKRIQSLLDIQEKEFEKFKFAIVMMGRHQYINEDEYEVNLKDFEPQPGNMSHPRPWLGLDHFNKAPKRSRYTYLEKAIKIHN
# The list shows a part of the results, in another mix than the full data. Activity calls are given as the source filed them. Cut-off read from the data, not from the text of the source: active = inhibition above about 30%; inactive = the rest.
# Target: Ubiquitin carboxyl-terminal hydrolase 7 (Homo sapiens) (UniProt Q93009)
# Assay: inhibitors of human USP7 deubiquitinase (AID 1645854)
# Conditions: purified USP7, Ub-rhodamine cleavage fluorescence; at 20 µM; active compounds read high
row,SMILES,inhibition
1,CN(C)c1ccc(C(=O)NCC2(N3CCCCC3)CCCCC2)cc1,inactive: 1.88%
2,N#Cc1ccc(C(=O)NCC2(N3CCCCC3)CCCCC2)cc1,inactive: -2.28%
3,O=C(NCC1(N2CCOCC2)CCCCC1)c1ccccc1Cl,inactive: -3.81%
4,O=C(NCC1(N2CCCCC2)CCCCC1)c1ccc2ncsc2c1,inactive: -0.266%
5,Cc1ccccc1C(=O)NCC1(N2CCOCC2)CCCCC1,inactive: 2.61%
6,Cc1cc(C(=O)NCC2(N3CCOCC3)CCCCC2)c2ccccc2n1,inactive: 2.62%
7,CC1CN(CCc2ccccc2)CCC1=O (stereo not drawn),inactive: 0.237%
8,O=C(NCC1(N2CCCCC2)CCCCC1)c1ccc(F)cc1,inactive: -3.35%
